# From PubChem BioAssay
# Arr AP2 block: blocks beta-arrestin peptide binding to AP2 adaptin. inhibition, % at 10 µM. 0.31% of 340,000 active. FITC-arrestin peptide / GST-AP2 beads, flow cytometry; AP2 beta2 appendage carries R879A mutation;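 active = inhibition above a set limit, near 3 SD of compounds lacking own fluorescence, cut at about 54% in these data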;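 note: plate controls were DMSO wells for no effect and 5 µM unlabelled arrestin peptide for full effect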
#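 System: GST-AP2 R879A glutathione beads | Also added: FITC-arrestin peptide, 50 nM | Times: 12 min plus 1 h, RT | Signal: Bead flow cytometry, FITC channel | Buffer or medium: PBS with 0.05% Tween 20 and 0.1% BSA | Read-out basis: Percent drop in bead-associated FITC signal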
# UUG fidelity: modulators of start codon recognition fidelity in yeast. activity score, % at 18.7 µM. S. cerevisiae UUG-firefly luciferase reporter, luminescence/redox ratio. 350,000 compounds, 0.13% hits;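 active means replicate mean at a twofold rise or more, about +100% in these data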;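 further: firefly luciferase made from a UUG start codon reports start codon fidelity; reporter light over untreated wells divided by growth signal over untreated wells; some hits fall short of that in this replicate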
# Rce1 inhib: blocks yeast Ras-converting enzyme; Q03530; calls only; AID 2563; yeast membranes, quenched prenylated peptide cleavage fluorescence; 0.27% of 290,000 active;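 active = fall in fluorescence gain of 50% or more versus controls, with final raw signal at or below 3038400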;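 note: plate controls were neutral control wells for no effect and wells lacking membranes for full effect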
# TbMetRS inhib: blocks T. brucei methionyl-tRNA synthetase activity | purified T. brucei MetRS, ATP depletion, Kinase-Glo luminescence | AID 624268 | inhibition, % at 11.9 µM | 0.4% of 360,000 active;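 active = inhibition above a per-plate cutoff of the control wells' mean inhibition plus 3 SD, cut at about 5.5% in these data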;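 note: 0% = DMSO wells median and 100% = median of wells with control inhibitor compound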
#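 Material: T. brucei methionyl-tRNA synthetase, purified; reagent: substrates ATP, L-methionine and bulk Escherichia coli tRNA; dosing: 11.9 µM single point; timing: 15 min plus 2 h at 25 °C; detection: luminescence of leftover ATP; evaluation: % inhibition; control set: DMSO-only wells as low control; replicates: singlicate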
# DSG3 Ab inh: inhibitors of pemphigus antibody binding to human desmoglein-3 | DSG3-coupled beads, scFv-anti-DSG3-GFP binding, flow cytometry; active compounds read low | AID 588358 | binding (percent of control), % at 10 µM | 0.48% of 310,000 active;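 active = binding more than 3 SD below its plate's average and above zero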;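 note: hits lower antibody fragment binding to DSG3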
# An asterisk follows results filed as active; i = inactive; nt = no result; + = active, no number. Sampled rows, rich in hits. Any-hit rate of the full collection: about 1.2%.
Arr AP2 block | UUG fidelity | Rce1 inhib | TbMetRS inhib | DSG3 Ab inh | smiles
2 | -23 | i | 0 | 103 | Cc1ccc(S(=O)(=O)CCc2nnc(NC(=O)C3CCCCC3)s2)cc1
4 | 12 | i | -1 | 6.1* | CC(=O)Nc1nnc(CCS(=O)(=O)c2ccc(C)c(C)c2)s1
nt | 25 | nt | nt | nt | Cc1noc(C)c1S(=O)(=O)N(C)C[C@@H]1Oc2ccc(NC(=O)NC3CCCCC3)cc2CC(=O)N([C@@H](C)CO)C[C@H]1C
5 | -5 | i | 0 | 80* | c1ccc2sc(SN3CCOCC3)nc2c1
11 | -18 | i | 0 | 102 | c1ccc2sc(N3CCOCC3)nc2c1
nt | -13 | nt | nt | nt | CC(=O)N(C)C[C@@H]1Oc2ncc(-c3ccccc3C)cc2C(=O)N([C@H](C)CO)C[C@H]1C
-3 | -10 | i | 0 | 73* | CN(C)S(=O)(=O)N1CCN(S(=O)(=O)c2ccc3ccccc3c2)CC1
nt | -9 | nt | nt | nt | CCC(=O)Nc1ccc2c(c1)C(=O)N(C)C[C@H](OC)[C@H](C)CN(C(=O)C1CCC1)[C@H](C)CO2
nt | -8 | nt | nt | nt | Cc1ccc(S(=O)(=O)N(C)C[C@@H]2OCCCC[C@@H](C)Oc3ccc(NC(=O)c4ccncc4)cc3C(=O)N([C@@H](C)CO)C[C@H]2C)cc1
-3 | nt | + | -1 | 115 | CCCCCc1ccc(OCCOCCn2c[n+](C)c3ccccc32)c(CCCCC)c1
nt | -2 | nt | nt | nt | CCS(=O)(=O)NCC[C@@H]1CC[C@@H](NC(=O)C2CCCC2)[C@@H](CO)O1
nt | 30 | nt | nt | nt | C[C@@H]1CN([C@@H](C)CO)C(=O)c2cc(NC(=O)CCCN(C)C)ccc2O[C@@H](C)CCCCO[C@@H]1CN(C)C(=O)Cc1ccccc1
nt | 2 | nt | nt | nt | COc1ccc(CN(C)C[C@@H]2OCCCC[C@@H](C)Oc3ccc(NC(=O)CCCN(C)C)cc3C(=O)N([C@H](C)CO)C[C@H]2C)cc1
-7 | nt | i | -1 | 29* | O=c1[nH]c(=O)c2nc3c4ccccc4c4ccccc4c3nc2[nH]1
4 | nt | i | 0 | 38* | COc1cccc(Sc2ccccc2/C=N/NC(N)=O)c1
14 | nt | i | 0 | 95 | Oc1cccc(/C=N/NC(=S)Nc2cccnc2)c1O
17 | -37 | i | 2 | 53* | Oc1ccc(/C=N/NC(=S)Nc2cccnc2)c(O)c1O
7 | -18 | i | 1 | 41* | Cc1cc(C)c(NC(=S)NC(=O)c2ccc(-c3ccccc3)cc2)c(C)c1
-18 | -6 | i | 1 | 76* | CN(C)S(=O)(=O)c1ccc2c(c1)C(=NO)c1cc(S(=O)(=O)N(C)C)ccc1-2
-18 | -6 | i | 0 | -5.9* | CN(CCO)S(=O)(=O)c1ccc2c(c1)C(=NNC(N)=O)c1cc(S(=O)(=O)N(C)CCO)ccc1-2
3 | -10 | i | 0 | 86 | CN(C)S(=O)(=O)c1ccc2c(c1)C(=NNC(N)=O)c1cc(S(=O)(=O)N(C)C)ccc1-2
-5 | -14 | i | 0 | 100 | CN(C)N=C1c2cc(S(=O)(=O)N(C)C)ccc2-c2ccc(S(=O)(=O)N(C)C)cc21
nt | 6 | nt | nt | nt | COCC(=O)N(C)C[C@H]1Oc2ncc(C3=CCCC3)cc2C(=O)N([C@H](C)CO)C[C@H]1C
19 | -6 | i | -1 | nt | COc1ccc(N2CCN(C(=O)NCc3ccc(OC)c(OC)c3)CC2)cc1
10 | nt | i | 0 | 44* | COc1ccc(N2CCN(C(=O)NCc3ccc(OC)c(Cl)c3)CC2)cc1
-1 | -7 | i | 0 | 91 | Cc1c(C(=O)NCc2ccc3c(c2)OCO3)sc2nc(-c3ccc(F)cc3)cn12
3 | -10 | i | 0 | 58* | Cc1c(C(=O)NCc2ccc3c(c2)OCO3)sc2nc(-c3ccccc3)cn12
10 | 9 | + | -1 | 108 | Nc1c(C(=O)NCCN2CCOCC2)c2nc3ccccc3nc2n1-c1cccc(F)c1
4 | -12 | i | 0 | 137 | CCCNC(=O)c1c(N)n(-c2cccc(OC)c2)c2nc3ccccc3nc12
nt | -25 | nt | nt | nt | C[C@H](CO)N1C[C@H](C)[C@H](CN(C)Cc2ccccn2)Oc2ncc(C3=CCCC3)cc2C1=O
5 | -16 | i | 1 | 99 | O=C(N/N=C/C1CC=CCC1)c1cc2ccccc2cc1O (stereo not given)
-12 | nt | + | 0 | 123 | O=C(N/N=C/C1CC=CCC1)c1ccc(O)cc1O (stereo not given)
-21 | nt | + | 0 | 99 | O=C(Nc1ccc2c(c1)CCC2)c1ccccc1Br
-3 | nt | i | 0 | 100 | O=C(Nc1ncccn1)c1cc([N+](=O)[O-])cc([N+](=O)[O-])c1
19 | nt | + | -2 | 110 | O=C(Nc1ncccn1)c1ccc([N+](=O)[O-])cc1
-1 | -32 | + | 0 | 100 | c1ccc(-n2nnnc2SCc2cn3cccnc3n2)cc1
6 | nt | + | 0 | 104 | Cc1c(Cl)c([N+](=O)[O-])nn1CC(=O)N1CCCc2ccccc21
nt | -5 | nt | nt | nt | C[C@H]1CCCCO[C@@H](CN(C)C(=O)Nc2ccc(C(F)(F)F)cc2)[C@@H](C)CN([C@@H](C)CO)C(=O)c2cc(N(C)C)ccc2O1
-3 | nt | nt | 1 | 74* | O=c1cc2oc3cc(O)c(O)cc3c(-c3ccccc3O)c-2cc1O
nt | -8 | nt | 0 | 82* | Cc1ccc(S(=O)(=O)N2CCCOC2CNC(=O)C(=O)NCCc2ccco2)cc1 (stereo not given)

# Shown field by field: part of the list above
O=C(Nc1ncccn1)c1ccc([N+](=O)[O-])cc1
- Arr AP2 block: 19
- UUG fidelity: nt
- Rce1 inhib: +
- TbMetRS inhib: -2
- DSG3 Ab inh: 110
c1ccc(-n2nnnc2SCc2cn3cccnc3n2)cc1
- Arr AP2 block: -1
- UUG fidelity: -32
- Rce1 inhib: +
- TbMetRS inhib: 0
- DSG3 Ab inh: 100
Cc1c(Cl)c([N+](=O)[O-])nn1CC(=O)N1CCCc2ccccc21
- Arr AP2 block: 6
- UUG fidelity: nt
- Rce1 inhib: +
- TbMetRS inhib: 0
- DSG3 Ab inh: 104

# (cont.)
Arr AP2 block | UUG fidelity | Rce1 inhib | TbMetRS inhib | DSG3 Ab inh | smiles
1 | 1 | i | 0 | nt | O=C(NCCc1ccco1)C(=O)NCC1OCCCN1S(=O)(=O)c1ccc(Cl)cc1 (stereo not given)
55* | -23 | i | 0 | 120 | Clc1cccc(C2Nc3cccc4cccc(c34)N2)c1
nt | 3 | nt | nt | nt | C[C@H]1CN([C@@H](C)CO)C(=O)Cc2cc(NC(=O)Nc3ccc(F)cc3)ccc2O[C@@H]1CN(C)Cc1ccc(Oc2ccccc2)cc1
nt | -7 | nt | nt | nt | CC(=O)N[C@@H]1CC[C@H](CCNC(=O)C2CCCC2)O[C@H]1CO
nt | 2 | nt | nt | nt | O=C(Nc1ccc2c(c1)[C@@H]1C[C@H](CC(=O)N3CCOCC3)O[C@@H](CO)[C@@H]1O2)NC1CCCC1
nt | 1 | nt | nt | nt | C[C@@H]1CN([C@@H](C)CO)C(=O)c2cc(NS(=O)(=O)c3cn(C)cn3)ccc2O[C@@H]1CN(C)Cc1ccccc1
7 | -19 | i | -1 | 58* | CC(=O)Nc1cccc(OCc2ccc(S(=O)(=O)Cc3ccccc3)cc2)c1
3 | -12 | i | -1 | 66* | CCOc1cc(/C=N\NC(=O)c2ccc(C)nc2)ccc1OC(=O)c1ccc(F)cc1
nt | nt | i | nt | nt | CCOc1cc(/C=N/NC(N)=O)ccc1OC(=O)c1ccc(C)cc1
-1 | -27 | i | 1 | 100 | Cc1cccc2cc(C3CC(c4cccs4)=NN3C(=O)CCC(=O)O)c(Cl)nc12 (stereo not given)
4 | nt | + | 0 | 95 | Cc1ccc2nc(Cl)c(C3CC(c4cccs4)=NN3C(=O)CCCC(=O)O)cc2c1 (stereo not given)

# Quoted at random: 3 records from the list, in no set order.
Arr AP2 block | UUG fidelity | Rce1 inhib | TbMetRS inhib | DSG3 Ab inh | smiles
2 | -23 | i | 0 | 103 | Cc1ccc(S(=O)(=O)CCc2nnc(NC(=O)C3CCCCC3)s2)cc1
nt | 30 | nt | nt | nt | C[C@@H]1CN([C@@H](C)CO)C(=O)c2cc(NC(=O)CCCN(C)C)ccc2O[C@@H](C)CCCCO[C@@H]1CN(C)C(=O)Cc1ccccc1
nt | 1 | nt | nt | nt | C[C@@H]1CN([C@@H](C)CO)C(=O)c2cc(NS(=O)(=O)c3cn(C)cn3)ccc2O[C@@H]1CN(C)Cc1ccccc1
